From patent US20260007651A1, “Effect of YEL002 on Conditions and Diseases” (RadMit, Inc., priority 2022, published 2026)

System: cells
Test: Resistance of cells to exposure to a variety of agents
Conditions: UV, chemical carcinogens, chemical warfare agents, radioactive iodine and cigarette smoke

COc1ccc2cc(-c3nc4ccc(C)cn4c3NCc3ccco3)c(=O)[nH]c2c1 [YEL002]
resistance of cells to agents: more resistant
